The values below come from patent US20060151574A1, “Formulations useful against hepatitis C virus infections” (priority 2002, published 2006).

The data set has as its system replicon cells. Nature of the data set: Cytotoxic effects on replicon cells.

`CC1=C(/C=C/C(C)=C/C=C/C(C)=C/C(=O)O)C(C)(C)CCC1` [ATRA, all trans retinoic acid]: the Severe cytotoxic effects entry reads like this: (all trans retinoic acid and sodium selenite in combination) “neither observed”; (substance alone) “neither observed”.
